The data set in a line: Average size measured by DLS (dynamic light scattering). Type of data set: physicochemical. The conditions noted are these: measured five times. As to the method: The sizes of HAS and MSA were measured by DLS (dynamic light scattering). The measurement was performed five times in order to ensure uniformity.

For HSA: human serum albumin, the average size was determined as 6.80±1.3 nm.

The values are drawn from patent publication US10159756B2, “Complex of mannosyl serum albumin, method of preparing the same, optical imaging probe and kit comprising the same” (Korea University Research and Business Foundation, priority 2014, dated 2018).
